Target: 6x His-tagged Aurora B (full length) (UniProt Q96GD4)
Assay: pull-down

B1: GST-CENP-R (natural protein, human, UniProt Q13352 1-177, looked up)
chain: MPVKRSLKLDGLLEENSFDPSKITRKKSVITYSPTTGTCQMSLFASPTSSEEQKHRNGLSNEKRKKLNHPSLTESKESTTKDNDEFMMLLSKVEKLSEEIMEIMQNLSSIQALEGSRELENLIGISCASHFLKREMQKTKELMTKVNKQKLFEKSTGLPHKASRHLDSYEFLKAILN
Q: Does B1 bind?
A: Result: binds
